## Yeast mating assay B: variants of the scFv Ab-14

Source: Li et al. 2023 (doi:10.1038/s41467-023-39022-2), MIT Lincoln Laboratory and A-Alpha Bio; data file from the FLAb repository.

Target peptide (SARS-CoV-2 spike, HR2 region): PDVDLGDISGINAS

Parent: Ab-14, a human scFv built as VH, a 15-residue (Gly4Ser)3 linker, VL. Only the CDRs of the heavy chain vary.
VH: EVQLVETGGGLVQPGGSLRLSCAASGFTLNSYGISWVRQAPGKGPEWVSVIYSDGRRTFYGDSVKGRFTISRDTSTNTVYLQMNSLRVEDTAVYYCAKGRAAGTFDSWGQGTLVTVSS
VL: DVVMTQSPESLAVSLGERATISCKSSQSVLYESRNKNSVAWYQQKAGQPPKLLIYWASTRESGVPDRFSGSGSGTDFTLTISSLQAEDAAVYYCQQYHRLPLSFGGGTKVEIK

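Phage display of a naive human antibody library on the peptide gave the parent. The variants were designed computationally from a first round of random CDR variants and then made and measured. Group labels follow the data file (En: ensemble of fine-tuned language models; HC: hill climbing; Gen: genetic algorithm; Gibbs: Gibbs sampling; a sequence that several methods proposed may carry one label only). The assay is AlphaSeq: two haploid yeast populations carry antibody and antigen on their surface. After mating in shaken culture at 30 °C for 16 h, diploids were selected and their barcode pairs sequenced. Read counts were normalised to the haploid input and turned into Kd by a linear fit to BCL2-family pairs of known affinity, for each replicate. Each pool was mated in six replicate cultures.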

The parent's heavy chain CDRs are GFTLNSYGIS, VIYSDGRRTFYGDSVK, GRAAGTFDS; each variant's own CDRs replace them letter for letter. This list holds designs with more than six substitutions. The Kd shown is the geometric mean over detected replicates; a lower Kd is a better binder. An entry "nd" has no value in the source: the pair was not observed among the diploids in any replicate. This suggests poor binding but is not conclusive. Entries are sorted by rising average, undetected variants last. In the paper, a design with two or fewer of six values counts as a poor binder.

For GFTLDEYGIS / VIYADGRRTFYQDSVK / GNVAGTFDQ [En_HC], the assay gave 150 pM (6 of 6 replicates; controls 1 of 18). The variant GFNLDEYGIS / VIYADGMRTAYADDVK / GEVAGTFDV [En_Gen] gave 180 pM (6 of 6 replicates; controls 0 of 18). The variant GFDLNEYGIS / VIYADGMRTAYIDSVK / GEVAGTFDQ [En_Gen] showed 200 pM (6 of 6 replicates; controls 0 of 18). With GFDLDEYGIS / VIYADGKRTAYADNVK / GQVAGTFDV [En_Gen] the result was 220 pM (6 of 6 replicates; controls 0 of 18). With GFDLNEYGIS / VIYADGRRTFYTDSVK / GGNAGTFDF [En_HC] the result was 240 pM (6 of 6 replicates; controls 0 of 18). For GFNLNEYGIS / VIYADGRRTFYADSVK / GGEAGTFDV [En_HC], the assay gave 270 pM (6 of 6 replicates; controls 0 of 18). With GFDLNEYGIS / VIYADGVRTAYSDNVK / GNVAGTFDL [En_Gen] the result was 280 pM (6 of 6 replicates; controls 0 of 18). The variant GFDLNEYGIS / VIYADGRRTVYADSVK / GEVAGTFDV [En_Gen] gave 300 pM (6 of 6 replicates; controls 0 of 18). The variant GFDLDEYGIS / VIYADGKRTAYIDSVK / GNQAGTFDV [En_Gen] gave 310 pM (6 of 6 replicates; controls 0 of 18).

The variant GFDLNEYGIS / VIYADGVRTAYADNVK / GTNAGTFDV [En_Gen] showed 340 pM (6 of 6 replicates; controls 0 of 18). The variant GFDLDEYGIS / VIYADGRRTAYADSVK / GNTAGTFDV [En_Gen] showed 340 pM (6 of 6 replicates; controls 0 of 18). For GFDLNEYGIS / VIYADGMRTAYADDVK / GQVAGTFDI [En_Gen], the assay gave 390 pM (6 of 6 replicates; controls 0 of 18). The variant GFDLNEYGIS / VIYADGRRTFYADSVK / GKEAGTFNV [En_HC] gave 410 pM (6 of 6 replicates; controls 0 of 18). For GFDLNEYGIS / VIYADGRRTFYADSVK / GNTAGTFLD [En_HC], the assay gave 430 pM (6 of 6 replicates; controls 0 of 18). For GFTLDEYGIS / VIYADGRRTFYADSVK / GEVAGTFDI [En_HC], the assay gave 460 pM (6 of 6 replicates; controls 0 of 18). With GFDLNEYGIS / VIYADGRRTAYVDSVK / GEVAGTFDL [En_Gen] the result was 470 pM (6 of 6 replicates; controls 0 of 18). For GFDLNEYGIS / VIYADGRRKFYADKVK / GETAGTFNV [En_HC], the assay gave 520 pM (6 of 6 replicates; controls 0 of 18). With GFDLNEYGIS / VIYADGMRTAYADKVK / GNVAGTFDM [En_Gen] the result was 570 pM (6 of 6 replicates; controls 0 of 18).

For GFSLDEYGIS / VIYADGRRTAYADSVK / GNVAGTFDV [En_HC], the assay gave 630 pM (6 of 6 replicates; controls 0 of 18). For GFDLEEYGIS / VIYADGRRTAYADSVK / GNVAGTFDT [En_Gen], the assay gave 760 pM (6 of 6 replicates; controls 0 of 18). The variant GFDLDEYGIS / VIYADGQRTFYADSVK / GEAAGTFDS [En_HC] gave 1.0 nM (6 of 6 replicates; controls 0 of 18). For GFDLNEYGIS / VIYADGMRTAYSDSVK / GKNAGTFDV [En_Gen], the assay gave 1.4 nM (6 of 6 replicates; controls 1 of 18). With GFDLNEYGIS / VIYADGMRTAYIDSVK / GEVAGTFDV [En_Gen] the result was 2.3 nM (6 of 6 replicates; controls 0 of 18). With GFDLNEYGIS / VIYADGMRSYYADSVK / GNVAGTFDV [En_Gen] the result was 3.0 nM (6 of 6 replicates; controls 0 of 18). The variant GFDLNEYGIS / VIYADGRRTSYIDSVK / GEIAGTFNV [En_HC] gave 6.1 nM (6 of 6 replicates; controls 0 of 18). With GFDLNEYGIS / VIYADGKRTAYSDSVK / GNQAGTFDL [En_Gen] the result was 8.9 nM (4 of 6 replicates; controls 0 of 18). The variant GFDLNEYGIS / VIYADGMRTAYTDSVK / GENAGTFDL [En_Gen] gave 24 nM (2 of 6 replicates; controls 0 of 18).

With GFDLDEYGIS / VIYADGARKAYQNQFK / GGQAGTFVN [En_Gibbs] the result was 43 nM (5 of 6 replicates; controls 0 of 18). For GFGLDEYGIS / VIFADGERKYYTDNVK / GHFGEDGIV [En_Gibbs], the assay gave 170 nM (2 of 6 replicates; controls 0 of 18). For GFQLDEYGIS / VIYADGMRTMYADSFK / GMKSVNIGD [En_Gibbs], the assay gave nd (0 of 6 replicates; controls 0 of 18). For GFNLEDYGIS / VIYADGIRMSYQEAVK / GQNSGVIVN [En_Gibbs], the assay gave nd (0 of 6 replicates; controls 0 of 18). For GFDIEEYGIS / VIYADGVRTMYTPNVK / GNITGLAMT [En_Gibbs], the assay gave nd (0 of 6 replicates; controls 0 of 18). The variant GFDLEDYGIS / VIYADGIRMSYAEAVK / GQNSGVIVN [En_Gibbs] showed nd (0 of 6 replicates; controls 0 of 18). The variant GFDLNEYGIS / VIYADGRRTAYADSVK / GQNAGTFDL [En_Gen] gave nd (0 of 6 replicates; controls 0 of 18). With GRNLDEYGIS / VIYADGQRTSYRDNVK / GQNSGHLDM [En_Gibbs] the result was nd (0 of 6 replicates; controls 0 of 18). The variant GESLDSYGIS / VIYADGMRTSYDNSVK / GVWAGTFDG [En_Gibbs] gave nd (0 of 6 replicates; controls 0 of 18).

For GFGLSEYGIS / VIYADGVRASYADNVK / GFNFGQDIL [En_Gibbs], the assay gave nd (0 of 6 replicates; controls 0 of 18). The variant GFNLDEYGIS / VIYADGKRTAYADSVK / GNVAGTFDI [En_Gen] gave nd (0 of 6 replicates; controls 0 of 18).

Extract of 2 entries:

{"CDR-H1": "GFDLDEYGIS", "CDR-H2": "VIYADGQRTFYADSVK", "CDR-H3": "GEAAGTFDS", "group": "En_HC", "Kd (apparent)": "1.0 nM", "seen in": "6/6", "signal with controls": "0/18"}
{"CDR-H1": "GFDLNEYGIS", "CDR-H2": "VIYADGKRTAYSDSVK", "CDR-H3": "GNQAGTFDL", "group": "En_Gen", "Kd (apparent)": "8.9 nM", "seen in": "4/6", "signal with controls": "0/18"}

Values of this round are not directly comparable with the first-round values of the same sequences. Empty control strains, which show no peptide, gave a signal in 1% of pairings with all heavy chain designs; the median was 120 nM and 95% of these signals were weaker than 7.0 nM. No background was subtracted. For each scFv, signals with the empty controls are counted beside the result. The parent sequence was in this pool as ten entries: three were never detected, three once, and four in most replicates, with averages from 2.2 nM to 240 nM.